Measurements reported in PMC11997985, “Synthesis and In Vitro Profiling of Psilocin Derivatives: Improved Stability and Synthetic Properties” (Journal of Medicinal Chemistry, 2025).

Assays:
[1] = Photolytic degradation of psilocin salts; conditions: 12900 lx, RT, water:acetonitrile 1:1
[2] = Thermal degradation of psilocin salts at 60 °C; conditions: water:acetonitrile 1:1
[3] = Forced degradation of psilocin salts, base (0.10 M NaOH); conditions: after 24 h, RT
[4] = Forced degradation of psilocin salts, oxidative (0.30% H2O2); conditions: 0.30% H2O2, after 24 h, RT

SMILES | color (24 h) [1] | color (24 h) [2] | color [3] | color [4]
CN(C)CCc1c[nH]c2cccc(O)c12.Cl [Compound 9a] | gray | black | black | pink tint
CN(C)CCc1c[nH]c2cccc(O)c12.O=C(O)c1ccccc1 [Compound 9c] | brown | black | black | brown tint
CN(C)CCc1c[nH]c2cccc(O)c12.O=P(O)(O)O [Compound 9e] | gray | black | black | gray
CN(C)CCc1c[nH]c2cccc(O)c12.O=C(O)C(F)(F)F [Compound 9f] | black | black | black | yellow
